“And” between values parts separate entries of the source, which are not always exact repeats. Identical values can stand only once. This is a selection; strong and weak results do not stand in their true shares.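 48-hour exposure, single concentration, 96-well plates; percent growth endpoint where 0 means no net growth. Active: below 10.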 The source made the active and inactive calls.
Assays:
Experiment in all cases: NCI-60 one-dose screen, 48 h (100 = growth as untreated, 0 = no growth, -100 = all killed)
DU-145 prostate = settings: 10 µM unless noted
K-562 leukemia = settings: 10 µM unless noted
MALME-3M melanoma = settings: 10 µM unless noted
MDA-MB-231 breast = settings: 10 µM unless noted
RXF 393 renal = settings: 10 µM unless noted
SF-268 CNS = settings: 10 µM unless noted
SF-295 CNS = settings: 10 µM unless noted
SF-539 CNS = settings: 10 µM unless noted
UACC-257 melanoma = settings: 10 µM unless noted
M14 melanoma = settings: 10 µM unless noted
HCT-15 colon = settings: 10 µM unless noted
HT29 colon = settings: 10 µM unless noted
SNB-75 CNS = settings: 10 µM unless noted
SNB-19 CNS = settings: 10 µM unless noted
U251 CNS = settings: 10 µM unless noted
PC-3 prostate = settings: 10 µM unless noted
SK-MEL-5 melanoma = settings: 10 µM unless noted
UACC-62 melanoma = settings: 10 µM unless noted
LOX IMVI melanoma = settings: 10 µM
SK-MEL-28 melanoma = settings: 10 µM unless noted

Measured: growth

CC(=O)Nc1ccc([As](=O)(O)O)c(O)c1
inactive: DU-145 prostate 105% | K-562 leukemia 97.4% | MALME-3M melanoma 112% | MDA-MB-231 breast 105% | RXF 393 renal 134% | SF-268 CNS 102% | SF-295 CNS 103% | SF-539 CNS 99% | UACC-257 melanoma 99.3% | M14 melanoma 109% | HCT-15 colon 110% | HT29 colon 104% | SNB-75 CNS 95% | SNB-19 CNS 94.1% | U251 CNS 111% | PC-3 prostate 105% | SK-MEL-5 melanoma 102% | UACC-62 melanoma 98.9% | LOX IMVI melanoma 98.6% | SK-MEL-28 melanoma 106%

O=C1OP(=O)(Cl)Oc2ccccc21 (stereo not given)
inactive: DU-145 prostate 107% | K-562 leukemia 98.5% | MALME-3M melanoma 108% | MDA-MB-231 breast 104% | RXF 393 renal 117% | SF-268 CNS 101% | SF-295 CNS 103% | SF-539 CNS 97.1% | UACC-257 melanoma 95.7% | M14 melanoma 112% | HCT-15 colon 103% | HT29 colon 99.6% | SNB-75 CNS 102% | SNB-19 CNS 102% | U251 CNS 98.4% | PC-3 prostate 86.9% | SK-MEL-5 melanoma 99.1% | UACC-62 melanoma 97.9% | LOX IMVI melanoma 102% | SK-MEL-28 melanoma 107%

CN(CCCl)CCC(=O)c1ccccc1
inactive: DU-145 prostate 97.4% | K-562 leukemia 82.3% | MALME-3M melanoma 103% | MDA-MB-231 breast 110% | RXF 393 renal 101% | SF-268 CNS 90.3% | SF-295 CNS 99% | SF-539 CNS 102% | UACC-257 melanoma 102% | M14 melanoma 89% | HCT-15 colon 97.9% | HT29 colon 98.2% | SNB-75 CNS 90.5% | SNB-19 CNS 105% | U251 CNS 107% | PC-3 prostate 115% | SK-MEL-5 melanoma 98.4% | UACC-62 melanoma 100% | LOX IMVI melanoma 98.6% | SK-MEL-28 melanoma 96.9%

ClCCN1CCc2ccccc2C1
inactive: DU-145 prostate 116% | K-562 leukemia 95.2% | MALME-3M melanoma 96.8% | MDA-MB-231 breast 102% | RXF 393 renal 108% | SF-268 CNS 107% | SF-295 CNS 61% | SF-539 CNS 95.8% | UACC-257 melanoma 94.6% | M14 melanoma 97.8% | HCT-15 colon 92.2% | HT29 colon 99.8% | SNB-75 CNS 94.8% | SNB-19 CNS 99.3% | U251 CNS 98.9% | PC-3 prostate 87.2% | SK-MEL-5 melanoma 108% | UACC-62 melanoma 94.9% | LOX IMVI melanoma 88.3% | SK-MEL-28 melanoma 100%

COc1cccc(OC)c1N(CCCl)CCCl
inactive: DU-145 prostate 102% | K-562 leukemia 97.2% | MALME-3M melanoma 90.4% | MDA-MB-231 breast 111% | RXF 393 renal 107% | SF-268 CNS 96.8% | SF-295 CNS 98.8% | SF-539 CNS 95% | UACC-257 melanoma 115% | M14 melanoma 93.8% | HCT-15 colon 99.9% | HT29 colon 92.9% | SNB-75 CNS 89.1% | SNB-19 CNS 99.1% | U251 CNS 99.8% | PC-3 prostate 99.6% | SK-MEL-5 melanoma 102% | UACC-62 melanoma 96.4% | LOX IMVI melanoma 95.6% | SK-MEL-28 melanoma 101%

CCCCOP(N)(=O)OCCCC
inactive: DU-145 prostate 110% | K-562 leukemia 116% | MALME-3M melanoma 98.1% | MDA-MB-231 breast 101% | RXF 393 renal 110% | SF-268 CNS 115% | SF-295 CNS 111% | SF-539 CNS 99.2% | UACC-257 melanoma 95.1% | M14 melanoma 98.7% | HCT-15 colon 101% | HT29 colon 115% | SNB-75 CNS 92.4% | SNB-19 CNS 96.2% | U251 CNS 99.2% | PC-3 prostate 94.3% | SK-MEL-5 melanoma 94% | UACC-62 melanoma 101% | LOX IMVI melanoma 102% | SK-MEL-28 melanoma 103%

O=[N+]([O-])c1ccc(-c2cc([N+](=O)[O-])c(O)c([N+](=O)[O-])c2)cc1
inactive: DU-145 prostate 114% and 99.1% | K-562 leukemia 102% and 90.5% | MALME-3M melanoma 108% | MDA-MB-231 breast 101% and 117% | RXF 393 renal 111% and 114% | SF-268 CNS 105% and 96.1% | SF-295 CNS 85.7% and 101% | SF-539 CNS 97.1% and 108% | UACC-257 melanoma 114% and 107% | M14 melanoma 107% and 108% | HCT-15 colon 97.9% and 104% | HT29 colon 104% | SNB-75 CNS 107% and 105% | SNB-19 CNS 102% and 109% | U251 CNS 104% | PC-3 prostate 95.7% and 97% | SK-MEL-5 melanoma 107% and 105% | UACC-62 melanoma 101% and 106% | LOX IMVI melanoma 96% and 102% | SK-MEL-28 melanoma 123% and 109%

CC(Cl)CN(CC(C)Cl)C(=O)OCC(N)C(=O)O (stereo not given)
inactive: DU-145 prostate 125% and 123% | K-562 leukemia 109% and 108% | MALME-3M melanoma 115% and 112% | MDA-MB-231 breast 103% and 112% | RXF 393 renal 115% | SF-268 CNS 108% and 106% | SF-295 CNS 113% and 91.1% | SF-539 CNS 111% and 112% | UACC-257 melanoma 101% | M14 melanoma 98.3% and 105% | HCT-15 colon 121% and 98.4% | HT29 colon 105% and 116% | SNB-75 CNS 95.6% and 60.4% | SNB-19 CNS 97.1% and 98.7% | U251 CNS 104% and 95.9% | PC-3 prostate 91.6% and 110% | SK-MEL-5 melanoma 106% and 87.1% | UACC-62 melanoma 98.5% and 96.7% | LOX IMVI melanoma 92.6% and 102% | SK-MEL-28 melanoma 110% and 123%

CCCCOP(=O)(OCCCC)N1CCCC1C(=O)O (stereo not given)
inactive: DU-145 prostate 113% | K-562 leukemia 103% | MALME-3M melanoma 108% | MDA-MB-231 breast 102% | RXF 393 renal 102% | SF-268 CNS 100% | SF-295 CNS 97% | SF-539 CNS 99.2% | UACC-257 melanoma 95% | M14 melanoma 99.6% | HCT-15 colon 106% | HT29 colon 89.5% | SNB-75 CNS 90.9% | SNB-19 CNS 101% | U251 CNS 91.2% | PC-3 prostate 89.8% | SK-MEL-5 melanoma 99.8% | UACC-62 melanoma 101% | LOX IMVI melanoma 96.5% | SK-MEL-28 melanoma 108%

Cc1cc([N+](=O)[O-])cc([N+](=O)[O-])c1O
inactive: DU-145 prostate 111% | K-562 leukemia 107% | MALME-3M melanoma 109% | MDA-MB-231 breast 111% | RXF 393 renal 117% | SF-268 CNS 99.4% | SF-295 CNS 100% | SF-539 CNS 101% | UACC-257 melanoma 90.7% | M14 melanoma 102% | HCT-15 colon 103% | HT29 colon 108% | SNB-75 CNS 104% | SNB-19 CNS 102% | U251 CNS 96.7% | PC-3 prostate 101% | SK-MEL-5 melanoma 101% | UACC-62 melanoma 96.3% | LOX IMVI melanoma 97.4% | SK-MEL-28 melanoma 107%

O=[As](O)(c1ccccc1Br)c1ccccc1Br
inactive: DU-145 prostate 99.3% | K-562 leukemia 109% | MALME-3M melanoma 130% | MDA-MB-231 breast 91% | RXF 393 renal 112% | SF-268 CNS 91.5% | SF-295 CNS 109% | SF-539 CNS 92.6% | UACC-257 melanoma 105% | M14 melanoma 97.9% | HCT-15 colon 99.2% | HT29 colon 111% | SNB-75 CNS 101% | SNB-19 CNS 95.1% | U251 CNS 111% | PC-3 prostate 89.5% | SK-MEL-5 melanoma 105% | UACC-62 melanoma 99.4% | LOX IMVI melanoma 94% | SK-MEL-28 melanoma 120%

ClCCN1CCn2cnc3ncnc-3c21
inactive: DU-145 prostate 105% | K-562 leukemia 110% | MALME-3M melanoma 109% | MDA-MB-231 breast 107% | RXF 393 renal 105% | SF-268 CNS 97.8% | SF-295 CNS 98.9% | SF-539 CNS 102% | UACC-257 melanoma 109% | M14 melanoma 99.8% | HCT-15 colon 103% | HT29 colon 92% | SNB-75 CNS 89% | SNB-19 CNS 107% | U251 CNS 115% | PC-3 prostate 97.8% | SK-MEL-5 melanoma 99.5% | UACC-62 melanoma 99.9% | LOX IMVI melanoma 107% | SK-MEL-28 melanoma 112%

Nc1cccc([As](=O)(O)c2ccccc2)c1
inactive: DU-145 prostate 119% | K-562 leukemia 107% | MALME-3M melanoma 123% | MDA-MB-231 breast 109% | RXF 393 renal 77.2% | SF-268 CNS 103% | SF-295 CNS 110% | SF-539 CNS 90.1% | UACC-257 melanoma 16.4% | M14 melanoma 96.3% | HCT-15 colon 98.2% | HT29 colon 109% | SNB-75 CNS 106% | SNB-19 CNS 105% | U251 CNS 96.1% | PC-3 prostate 110% | SK-MEL-5 melanoma 105% | UACC-62 melanoma 98.8% | LOX IMVI melanoma 101% | SK-MEL-28 melanoma 122%

O=C(O[C@H]1CN2CCC1CC2)C1NCc2ccccc2[C@@H]1c1ccccc1 (stereo not given in full)
inactive: DU-145 prostate 115% | K-562 leukemia 84.2% | MALME-3M melanoma 108% | MDA-MB-231 breast 96.9% | RXF 393 renal 101% | SF-268 CNS 110% | SF-295 CNS 103% | SF-539 CNS 98% | UACC-257 melanoma 103% | M14 melanoma 95.1% | HCT-15 colon 93.6% | HT29 colon 72.1% | SNB-75 CNS 74.9% | SNB-19 CNS 102% | U251 CNS 99% | PC-3 prostate 88.2% | SK-MEL-5 melanoma 90% | UACC-62 melanoma 100% | LOX IMVI melanoma 96.5% | SK-MEL-28 melanoma 110%

COC(=O)c1ccc(N2CCOP2(=O)Cl)cc1O (stereo not given)
inactive: DU-145 prostate 106% | K-562 leukemia 95.4% | MALME-3M melanoma 104% | MDA-MB-231 breast 108% | RXF 393 renal 113% | SF-268 CNS 111% | SF-295 CNS 114% | SF-539 CNS 102% | UACC-257 melanoma 84.6% | M14 melanoma 103% | HCT-15 colon 99.9% | HT29 colon 98.1% | SNB-75 CNS 85.8% | SNB-19 CNS 109% | U251 CNS 96.7% | PC-3 prostate 96.9% | SK-MEL-5 melanoma 104% | UACC-62 melanoma 106% | LOX IMVI melanoma 118% | SK-MEL-28 melanoma 97.6%

Reference: PubChem BioAssay (NCI)
